These are literature values, as cited in paper PMC12481580 (Journal of Medicinal Chemistry, 2025).

Protein sequences, listed by entry. Tags and fused reporters are not part of them.
UniProt P30989, whole entry: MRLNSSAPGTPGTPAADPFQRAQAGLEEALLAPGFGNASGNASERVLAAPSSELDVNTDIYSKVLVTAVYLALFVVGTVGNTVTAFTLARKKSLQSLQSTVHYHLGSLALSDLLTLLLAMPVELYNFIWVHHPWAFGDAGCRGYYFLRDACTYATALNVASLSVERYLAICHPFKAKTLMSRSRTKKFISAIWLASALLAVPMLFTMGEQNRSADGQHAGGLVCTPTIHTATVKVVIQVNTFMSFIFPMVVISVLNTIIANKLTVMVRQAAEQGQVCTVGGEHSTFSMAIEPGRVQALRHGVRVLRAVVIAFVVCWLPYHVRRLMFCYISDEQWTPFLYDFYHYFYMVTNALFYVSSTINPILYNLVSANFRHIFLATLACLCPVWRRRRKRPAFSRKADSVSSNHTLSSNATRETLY

The series deals with NTS1R (Homo sapiens, UniProt P30989). The following applies: read-out: IC50 (hNTS1R); ref Maes et al.; cited from earlier work.

As to `CC(C)C[C@H](NC(=O)[C@@H](NC(=O)[C@H](Cc1ccc(O)cc1)NC(=O)[C@@H]1CCCN1C(=O)[C@H](CCCNC(=N)N)NC(=O)[C@H](CCCNC(=N)N)NC(=O)CCCCNC(=O)c1ccccc1-c1c2ccc(=O)cc-2oc2cc(O)ccc12)C(C)(C)C)C(=O)O`, the IC50 (as a rule, the midpoint of a concentration-inhibition curve) was 75 nM.
